The results in this text go back to patent US9550796B2, “Pyrrolopyrrolone derivatives and their use as BET inhibitors” (NOVARTIS AG, priority 2013, dated 2017).

Amino acid sequences for entries named in this document (tags omitted). Residues count along the entry.
UniProt Q92793, 1081-1197: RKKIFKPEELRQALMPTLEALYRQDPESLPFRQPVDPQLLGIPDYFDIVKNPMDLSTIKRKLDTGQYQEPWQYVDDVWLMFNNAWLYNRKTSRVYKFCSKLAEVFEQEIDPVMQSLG

The pIC50 is the IC50 on a negative log10 scale, so that one unit is a factor of ten.

pIC50: −log10 of the molar value.

For one test, the target named is CREBBP (Homo sapiens (Human), UniProt Q92793). In words: AlphaScreen in-vitro binding assay for CREBBP. To be noted: 324 nM His-CREBBP (1081-1197), acetyl-histone H4 (AcK 5, 8, 12) peptide. As for the experimental part:
AlphaScreen In-Vitro Binding Assay for CREBBP
In order to assess bromodomain selectivity, we set up a binding assay using the bromodomain encoded by the CREBBP gene. Compounds were tested in the CREBBP assay with a similar protocol, however using AlphaScreen (Amplified Luminescent Proximity Homogeneous Assay, Perkin Elmer) as detection readout instead of TR-FRET. The assay was started by stepwise addition of 4.5 μL per well of bromo domain protein (50 mM HEPES, pH 7.5, 0.005% Tween20, 0.02% BSA, 150 mM NaCl, 324 nM His-CREBBP (1081-1197) (custom production at Viva Biotech Ltd.)) and 4.5 μL per well of peptide solution (50 mM HEPES, pH 7.5, 0.005% Tween20, 0.02% BSA, 150 mM NaCl, 120 nM acetyl-histone H4 (AcK 5, 8, 12) (Biosyntan GmbH)). Reactions were incubated at 30° C. for 35 minutes. Subsequently 4.5 μL per well detection mix (50 mM HEPES, pH 7.5, 0.005% Tween20, 0.02% BSA, 150 mM NaCl, 45 μg/ml Ni-chelate acceptor beads, 45 μg/mL streptavidin-donor beads) (Perkin Elmer)) were added. After 60 minutes incubation at room temperature, plates were measured in a Perkin Elmer EnVision multilabel reader. IC50 values were determined from percent inhibition values at different compound concentrations by non-linear regression analysis.
Test compounds were dissolved in DMSO (10 mM) and transferred into 1.4 mL flat bottom or V-shaped Matrix tubes carrying a unique 2D matrix. […]

The target in a further test is BRD4 (Homo sapiens (Human), UniProt O60885). In words: TR-FRET in-vitro binding assay for BRD4. Conditions: 45 nM His-Brd4(44-477), acetyl-histone H4 (AcK 5, 8, 12, 16) peptide. The procedure: TR-FRET In-Vitro Binding Assays for BRD2, BRD3, and BRD4: All assays were performed in 384-well microtiter plates. […] Liquid handling and incubation steps were done on an Innovadyne Nanodrop Express equipped with a robotic arm (Thermo CatX, Perkin Elmer/Caliper Twister II) and an incubator (Liconic STX40, Thermo Cytomat 2C450). The assay plates were prepared by addition of 50 nl per well of compound solution in 90% DMSO HummingBird nanodispenser (Zinsser Analytic). […] Reactions were incubated at 30° C. for 35 minutes. […] After 35 minutes incubation at 30° C., plates were measured in a Perkin Elmer EnVision multilabel reader. […] The stock solutions were stored at […] if not used immediately. For the test procedure the vials were defrosted and identified by a scanner whereby a working sheet was generated that guided the subsequent working steps. Compound dilutions were made in 96 well plates. This format enabled the assay of maximally […] at 8 concentrations (single points) including 4 reference compounds, if desired (known BET inhibitors from the prior art, for this and other assays of the type disclosed herein). The dilution protocol included the production of “pre-dilution plates”, “master plates” and “assay plates”. Polypropylene 96-well plates were used as pre-dilution plates. […] All dilution steps were done on a HamiltonSTAR robot. […]
Background: Time-resolved FRET reads energy transfer from a long-lived donor to a nearby acceptor.

As to `COc1cccc(C2c3c(ccn3C)C(=O)N2c2cc(Cl)c(=O)n(C)c2)c1` (centres unmarked) [Example 91, 5-(5-chloro-1-methyl-6-oxo-1,6-dihydropyridin-3-yl)-6-(3-methoxyphenyl)-1-methyl-5,6-dihydropyrrolo[3,4-b]pyrrol-4(1H)-one], the pIC50 on CREBBP is 4.95; at BRD4, 5.97.
